# Antibody variant affinities, Ab-14 heavy chain, assay 1

Target peptide (SARS-CoV-2 spike, HR2 region): PDVDLGDISGINAS

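The parent was found by panning a naive human phage display library on the peptide. Variants in AAYL49 differ from the parent at up to three CDR positions; double and triple changes were sampled at random. Affinity was read by AlphaSeq, a pooled yeast mating assay with surface-displayed partners. Pairs that bind mate more often; barcode pairs of the diploids are counted by sequencing. Each replicate has its own calibration line, from reference interactions of the BCL2 family. There are three technical replicates.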

Parent scFv Ab-14: VH joined to VL by a (GGGGS)3 linker. Changes lie in the heavy chain CDRs alone.
VH: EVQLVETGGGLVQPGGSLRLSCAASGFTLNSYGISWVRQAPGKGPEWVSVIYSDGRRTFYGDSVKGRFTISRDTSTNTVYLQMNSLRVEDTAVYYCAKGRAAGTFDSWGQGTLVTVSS
VL: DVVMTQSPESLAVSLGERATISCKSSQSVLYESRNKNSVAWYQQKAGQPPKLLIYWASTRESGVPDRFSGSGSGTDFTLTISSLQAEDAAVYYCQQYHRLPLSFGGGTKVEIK

The parent's heavy chain CDRs are GFTLNSYGIS, VIYSDGRRTFYGDSVK, GRAAGTFDS; each variant's own CDRs replace them letter for letter.
Numbers give log10(Kd / nM), so 0 is 1 nM and 3 is 1 µM. Smaller is tighter.
Averages over replicates are reported, and they cover detected replicates only.
"nd" marks a missing value. The strain was present, yet no cells mated with the target were sequenced in any replicate, which points to weak or no binding.

| CDR-H1 | CDR-H2 | CDR-H3 | mean, log10 nM | seen in | control signals |
|---|---|---|---|---|---|
| GFELESYGIS | VIYSDGRRTFYGDSVD | GRAAGTFDS | 0.94 | 3/3 | 1/9 |
| GFTLNSYGIS | VIFSPGRRTFYGDSVK | GRAAGTFDS | nd | 0/3 | 0/9 |
| GFTWNSYGIS | VIYSDGRRTFYGDSVV | GRAAGTFDS | 5.61 | 1/3 | 3/9 |
| GFTLNSYGIL | VIYSDGRRTFYGDSVK | GPAARTFDS | 3.27 | 1/3 | 2/9 |
| GFTLMSYGIS | VIYSDGRRTFYGDSVN | GRAQGTFDS | 1.77 | 3/3 | 1/9 |
| GFTLTSYGIS | VIYSDGRRTFYGDSVK | GRLALTFDS | 5.06 | 1/3 | 1/9 |
| GFTLNSYGIR | VIYSDGFRTFYGDQVK | GRAAGTFDS | nd | 0/3 | 1/9 |
| GFTLNSDGIS | VIYSDGRRTFYGDSVK | GRHAGTFDS | 4.61 | 3/3 | 0/9 |
| GFRLNSYGIS | VCYFDGRRTFYGDSVK | GRAAGTFDS | nd | 0/3 | 1/9 |
| GFTLNSYGIS | VIYSDFRHTFYPDSVK | GRAAGTFDS | nd | 0/3 | 1/9 |
| GFHLLSYGIS | VIYSDGRRTFYGTSVK | GRAAGTFDS | 3.75 | 3/3 | 1/9 |
| GFTLNSYGIS | VIPSDGRRTFYGDSVK | GRAEGTFDR | 5.33 | 1/3 | 2/9 |
| GFTLNSYGIS | VIYSDGRRTFYGRSVK | FRAAGTFDS | nd | 0/3 | 0/9 |
| GFTLNSYGIS | VIYSDGRRTFYKDSVK | GRAAPTFSS | nd | 0/3 | 0/9 |
| GFTLNSYGIS | VIYSDGRRTFYGDSAK | GRAAGTSDS | 4.13 | 1/3 | 1/9 |
| GVQLNSYGIS | VIYSDGRRTFYGDSVK | GRAAGTFNS | 2.86 | 3/3 | 1/9 |
| GFTCNSYGIS | VIYSDGRRTFYGDSVK | GRIAGTEDS | 4.10 | 1/3 | 0/9 |
| GFTLNSYGIS | VIYSDHRRTFYGDSVK | GRAAGTIDI | nd | 0/3 | 0/9 |
| EFSLNSYGCS | VIYSDGRRTFYGDSVK | GRAAGTFDS | nd | 0/3 | 0/9 |
| NFTLNSYGIS | VIYLDGRRTFYGDSVK | GRAAITFDS | nd | 0/3 | 0/9 |
| KFTLNKYGIS | RIYSDGRRTFYGDSVK | GRAAGTFDS | nd | 0/3 | 6/9 |
| GFTLNSYGIS | VIYSNGRRTFYGDSVK | GRARGTFDD | nd | 0/3 | 0/9 |
| AFTNNSYGIS | VIYSDGPRTFYGDSVK | GRAAGTFDS | 4.88 | 1/3 | 3/9 |
| GFYLNSYRIS | VRYSDGRRTFYGDSVK | GRAAGTFDS | nd | 0/3 | 0/9 |
| GFTLNSYGYS | VIYSDGRRTFYGDSVK | GRASGSFDS | 4.45 | 1/3 | 3/9 |
| GFTLNSYGIS | VIYSDGRRTFPGDSVK | QRAAGTWDS | 5.24 | 2/3 | 1/9 |
| GFTLNSYGIS | VHYSDGRRTFYGDSVK | GRAAFTFLS | nd | 0/3 | 1/9 |
| GFTLNSYGIS | VIYSLGRRTFCGDSVK | GRAAGMFDS | nd | 0/3 | 1/9 |
| GFTLNSYEIS | GIYEDGRRTFYGDSVK | GRAAGTFDS | nd | 0/3 | 0/9 |
| GFTLLSYGIS | VIYSDGRRTFYGDSVS | GRAAGYFDS | 2.30 | 3/3 | 1/9 |
| GFTLNSYGIS | VIYSDGRATFYGDSVQ | YRAAGTFDS | nd | 0/3 | 2/9 |
| GFTLNSYGIS | VIYSDGRRTFYNDCVK | NRAAGTFDS | 3.59 | 1/3 | 0/9 |
| GFTLNSYSIS | VIYSDGRRTRYGDSYK | GRAAGTFDS | 5.24 | 1/3 | 5/9 |
| GFTLNSYGNS | VIYSDGRRTFYGDSVK | GRAALTFHS | nd | 0/3 | 0/9 |
| GFTLNSYGIS | VIESDGRRTFYGDSVK | GRAFGRFDS | nd | 0/3 | 2/9 |
| GKNLNSYGQS | VIYSDGRRTFYGDSVK | GRAAGTFDS | nd | 0/3 | 4/9 |
| GFTLNSYGIS | VIYNDGRYTFYGDSVK | GRAAGTNDS | 4.65 | 3/3 | 4/9 |
| GFDLNSYGVS | VIYSDGRRTFYGDSVK | GRAHGTFDS | 0.85 | 3/3 | 1/9 |
| GNTLNSYGIS | VIYSDARRTFYMDSVK | GRAAGTFDS | 4.42 | 2/3 | 6/9 |
| RFTLNSYGIS | VIYSDGRRTFYGDSVK | TRAAGTFVS | 3.23 | 2/3 | 2/9 |
| GITLNSYGIS | VIYSDGRRTFYGDSVK | GAAAHTFDS | 3.03 | 1/3 | 1/9 |
| GFTLNSYGIV | VIYSDGRRTHYGDSVK | GRAAGTHDS | 3.98 | 2/3 | 7/9 |
| GFTENSYGIS | VIYSDGRRTFYGDSVK | GRAHGTFDS | 3.08 | 2/3 | 0/9 |
| GFTLNTPGIS | VIYSDGRRTFYGDSVT | GRAAGTFDS | 4.82 | 1/3 | 3/9 |
| GFTLNSYGIS | VIYSDGRRQFYADSVK | GRAAGQFDS | 0.47 | 3/3 | 2/9 |
| GFTLNGYGIS | EIYSDGRRTFYGDSVK | GRAAGTMDS | nd | 0/3 | 4/9 |
| GVTLNSYGIP | VIYSDGRRTFYGDSVK | GRDAGTFDS | nd | 0/3 | 4/9 |
| CYTLNSYGIS | VIYSDGRRTFYGDSVK | GRAAETFDS | 4.87 | 1/3 | 5/9 |
| NFTLLSYGFS | VIYSDGRRTFYGDSVK | GRAAGTFDS | 4.73 | 2/3 | 0/9 |
| GFTLNSYGIS | VIYSDGRMTFYGDSVK | GSAAGTFDS | nd | 0/3 | 1/9 |
| GFTLNSYGIS | VIYSDGRRQFYGDSVS | GEAAGTFDS | 1.18 | 3/3 | 2/9 |
| GFTLNSYGIS | VIYSDGRRTFYGDSVC | GDAAGFFDS | 2.39 | 1/3 | 1/9 |
| GSTLNSYGIS | DIYSDGRRTFYGDPVK | GRAAGTFDS | 6.36 | 1/3 | 4/9 |
| GFTLNSYGIS | VIYSDGRRYFVGDSVK | GRAAGTFDS | 3.12 | 3/3 | 3/9 |
| GFTLNSYGIS | VIYDDGRRTYYGDSVK | GRAAGTFDM | nd | 0/3 | 1/9 |
| GFTLNSYGPM | VIYSDGRRTFYGHSVK | GRAAGTFDS | 4.41 | 1/3 | 5/9 |
| GFTLNSYGIS | VIYSDGWRTFYGDSVK | GRAAGTFRS | nd | 0/3 | 0/9 |
| GFTLNSYGIS | VIYSDSRRTFYGDSVK | GRAAGTFDL | nd | 0/3 | 0/9 |
| GFTLNSYGIS | VIYSDGRRTFYVDSVK | GRAAGSVDS | 3.98 | 2/3 | 2/9 |
| GFTLNKYGIL | VIYWDGRRTFYGDSVK | GRAAGTFDS | 5.58 | 3/3 | 6/9 |
| GFTLNNYGWS | VIYSDGRRTFYGDSVK | GRAAGTNDS | 3.39 | 2/3 | 3/9 |
| HFTLNSYGIS | VIYSDGRRTFTGDSVK | GRQAGTFDS | 2.65 | 3/3 | 0/9 |
| GFTLNSYGIS | VIYSDGRRTFNGDSVK | KRAAGEFDS | nd | 0/3 | 0/9 |
| PFTLNSYGIS | VIYSDGRRTFYCTSVK | GRAAGTFDS | nd | 0/3 | 1/9 |
| GFTLNEYGIS | VIYMDQRRTFYGDSVK | GRAAGTFDS | 2.64 | 1/3 | 0/9 |
| GFTLNSYSIS | VHYSDGRRTVYGDSVK | GRAAGTFDS | nd | 0/3 | 2/9 |
| GFTLNSYGIS | VIYSDGRRTFYGMSVK | GRAAGTFGS | nd | 0/3 | 0/9 |
| GFTLNYYGIS | VIYWYGRRTFYGDSVK | GRAAGTFDS | 4.12 | 1/3 | 4/9 |
| GETLNSYGIS | VIYSDGRRTSYGDSVK | GRNAGTFDS | 0.26 | 3/3 | 0/9 |
| GATLNSYGIS | VIYSDERRTFYGDSVK | GRAAGTFDS | 4.17 | 2/3 | 7/9 |
| FFTLNSYGII | VIYSDGRRTKYGDSVK | GRAAGTFDS | 3.29 | 1/3 | 1/9 |
| AHTLNSYGIS | VIYSDPRRTFYGDSVK | GRAAGTFDS | nd | 0/3 | 1/9 |
| GFTLNRYGIS | VHYSDGRRTFYGDSVK | GRALGTFDS | 5.54 | 1/3 | 3/9 |
| GFTLNSYGIS | CIYSDGRRTFNGDSVK | MRAAGTFDS | 5.05 | 2/3 | 3/9 |
| GFTLNSYGIS | VIYSDGRHTFYIDSVK | GRAAGTFDS | 3.87 | 1/3 | 1/9 |
| GFTLNSYGIS | VIYSDGRSTFYGDSVK | GRAAETFDS | 3.02 | 1/3 | 0/9 |
| GFTLNQYGIS | VIYSDGRRTFYGDSVP | GRAAGTFDS | 5.05 | 1/3 | 0/9 |
| GFTLHSYGIS | VIYSDGRRTFYDDSVK | GRAAGTFDS | 1.26 | 3/3 | 0/9 |

Repeated from above, the 6 best binders with a signal in all replicates:

CDR-H1,CDR-H2,CDR-H3,"mean, log10 nM",seen in,control signals
GETLNSYGIS,VIYSDGRRTSYGDSVK,GRNAGTFDS,0.26,3/3,0/9
GFTLNSYGIS,VIYSDGRRQFYADSVK,GRAAGQFDS,0.47,3/3,2/9
GFDLNSYGVS,VIYSDGRRTFYGDSVK,GRAHGTFDS,0.85,3/3,1/9
GFELESYGIS,VIYSDGRRTFYGDSVD,GRAAGTFDS,0.94,3/3,1/9
GFTLNSYGIS,VIYSDGRRQFYGDSVS,GEAAGTFDS,1.18,3/3,2/9
GFTLHSYGIS,VIYSDGRRTFYDDSVK,GRAAGTFDS,1.26,3/3,0/9

Empty control strains, which show no peptide, gave a signal in 15% of pairings with library AAYL49; the median was 4.06 and 95% of these signals were weaker than 2.83. No background was subtracted. The control count says in how many pairings with the empty strains this scFv gave a signal.

Data: MIT Lincoln Laboratory AlphaSeq set, Engelhart et al. 2022, doi:10.1038/s41597-022-01779-4, as distributed in FLAb.